US20100203647A1, “Chemical Reporters of Protein Acylation” (THE ROCKEFELLER UNIVERSITY, priority 2008, published 2010)

System: Lck
Experiment: Pulse-chase tandem imaging of palmitate turnover on Lck in Jurkat T cells
Format: cell-based, human
Settings: added during the chase; 20 μM MAFP, 100 μM 2BP

methyl arachidonyl fluorophosphonate
effect of chemical inhibitor on palmitate turnover on Lck: significantly retarded palmitate turnover on Lck
